Assays:
[1] = system: interaction between SNAP25 and RAB3A; experiment: competitive fluorescence polarization, inhibition of SNAP25-RAB3A interaction; format: binding
recombinant RAB3A = experiment: fluorescence polarization binding of FITC-labeled peptide to recombinant RAB3A
[2] = transdermal absorption test, Franz Cell System, FITC-labeled samples; format: in vitro ADME; details: intact skin of Panama Pig, fluorescent image

CSCC[C@H](NC(=O)[C@H](CCC(=O)O)NC(=O)[C@H](CCC(=O)O)NC(=O)[C@H](CC(C)C)NC(=O)[C@H](C)NC(=O)[C@H](CC(N)=O)NC(=O)[C@H](CCCNC(=N)N)NC(=O)[C@H](CCSC)NC(=O)[C@H](Cc1ccccc1)NC(=O)[C@H](CCC(=O)O)NC(=O)[C@@H](N)CO)C(=O)N[C@@H](CC(C)C)C(=O)N[C@@H](CCCNC(=N)N)C(=O)N[C@@H](CCCNC(=N)N)C(=O)N[C@@H](C)C(N)=O [RSIpep]
efficacy in inhibiting SNAP25-RAB3A interaction relative to SNAP25pep [1]: approximately fourfold greater
enhancement of binding with RAB3A compared to SNAP25pep (recombinant RAB3A): over tenfold enhancement
penetration of the skin (longitudinal sections) [2]: formidable resistance

Reference: paper PMC11321638 (Advanced Science, 2024)
